Data: paper PMC4823704, “Trastuzumab-grafted PAMAM dendrimers for the selective delivery of anticancer drugs to HER2-positive breast cancer” (Scientific Reports, 2016)

Columns and labels:
[1] = DTX loading, concentration by HPLC; assay type: physicochemical; conditions: dendrimers conjugated with TZ after DTX loading
[2] = In vitro drug release, dialysis method in PBS; assay type: physicochemical; conditions: PBS pH 7.4
Experimental: In vitro drug release was studied using a dialysis method in PBS (pH 7.4). Taxotere and dendrimer formulations, equivalent to 2 mg of DTX, were placed in dialysis tubing (MWCO 2000) in release medium (100 mL of PBS) at 37 °C and stirred at 100 rpm. At different time intervals, an aliquot of 1 mL was withdrawn from the release medium and replaced with the same volume of fresh medium. The samples were appropriately diluted, filtered through a 0.22 μm nylon filter, and analyzed with HPLC for DTX content.

[3] = system: MDA-MB-231 cells (HER2-negative); test: Anti-proliferation assay (MTT); assay type: cell-based, human; conditions: MDA-MB-231, 48 h of incubation
MDA-MB-453 cells [4] = test: AO/EB double-staining assay (qualitative apoptosis); assay type: cell-based, human; conditions: 56 ng/mL DTX equivalent, 24 h
Experimental: AO/EB assays were used to visualize changes in cell morphology, such as chromatin condensation and apoptotic body formation, which are characteristic of apoptosis. […] After 24 h, the medium was removed and cells were washed twice in PBS before being incubated in PBS-containing AO and EB (5 μg/mL of each) at 37 °C for 10 min.

MDA-MB-453 cells [5] = test: Annexin V-FITC/PI apoptosis assay; assay type: cell-based, human; conditions: 56 ng/mL, 24 h
Experimental: To evaluate apoptosis and necrosis, we used Annexin V-FITC/PI assays, as per the manufacturer’s protocols. Briefly, MDA-MB-453 cells (1 × 10^6 cells/well) were seeded in six-well plates and maintained at 37 °C in 5% CO2 and a 95% humidified atmosphere. The medium was replaced with freshly prepared medium containing drug-loaded formulations. Untreated cells were used as controls. After 24 h, cells were washed twice with PBS and resuspended in 500 μL of binding buffer. We added 5 μL of FITC-conjugated Annexin V and 10 μL of PI, and incubated cells for 15 min at room temperature in the dark. Cells were then analyzed by a Muse™ Cell Analyzer (Merck-Millipore, Germany) and the extent of apoptosis and necrosis was determined.

[6] = Pharmacokinetic study, plasma DTX after intravenous injection; assay type: in vivo, Balb/c mice; conditions: versus Taxotere
[7] = system: MDA-MB-453 cells (HER2-positive); test: Anti-proliferation assay (MTT)

## TZ-Dend-DTX
[1]
  DTX concentration: 216.4 ± 2.79 µg/mL
[2]; after 24 h
  DTX released: 58.6%
[2]; after 48 h
  DTX released: 73.9%
[3]
  IC50: 0.1495 µg/mL
MDA-MB-453 cells [4]
  apoptosis (qualitative, AO/EB staining): greater apoptosis than those treated with Dend-DTX
MDA-MB-453 cells [5]
  live cells: 54.4%
  total percentage of apoptotic cells: 42.6%
[6]
  AUC0−∞ times higher than that of Taxotere: approximately 4.7 times
  MRT increase: approximately 3.4 times
[7]; MDA-MB-453, 48 h of incubation
  IC50: 0.0562 ± 0.0029 µg/mL and 0.05618 µg/mL
[7]; ratio of IC50 values, MDA-MB-453
  times more cytotoxic than Dend-DTX: 3.57 times

Several values for one entry are separate records, joined by “and”; a condition that tells them apart may be missing. Identical values can stand only once.
